The nature of the data set: in vitro. Conditions: human.

From PMC11676817 (2024) come the findings set out here.

On to `COc1ccc(C[C@H]2NC[C@H](O)[C@H]2OC(C)=O)cc1` [(-)-Anisomycin], for which the CC50 at 7 days was determined as 250 ± 130 nM and the selectivity ratio at 7 days turned out to be 13.
